The values that follow are results of earlier work, collected in patent US5039528A, “EAA antagonists as anti-emetic drugs” (priority 1989, dated 1991).

SMILES strings stand for the structures.

This data set deals with neurons. The note with it: Ser. No. 424,548; cited from earlier work.

Regarding `CCN(CC)CCOC(=O)C(O)(c1ccccc1)c1ccccc1`, the “reduction of the neurotoxicity of NMDA antagonists that penetrate the BBB” value was “effective in reducing the neurotoxicity”.
